For one data set, the system named is patients with ALS. The note with it: patients receiving NP001 who expressed LPS activation pathways. The text has this:
Non-limiting examples of measures of clinical response include the ALS Functional Rating Scale Revised (ALSFRS-R) and respiratory vital capacity.
Stem cell reprogramming for long term disease regulation is evidenced by finding normalization of biomarkers for at least one month after the last dose in the 6-month administration procedure.
A major subset of ALS patients show evidence for ongoing inflammation that potentially contributes to disease progression.

For data set [1] the following is noted: in vivo.

As to sodium chlorite [NP001], the “side effects in patients” value with patients with ALS was “no observed side effects”. Also, in the data set on CD 34+ HSCs, the “side effects in HSC cultures” value was “no observed side effects”. For the same substance, in data set [1], the half-life result is on record as “minutes”.

(Values after patent US20250114396A1, “CHLORITE USES FOR STEM CELLS” (The Regents of the University of California, priority 2023, published 2025).)
